Eleven molecules from PubChem BioAssay AID1347055 (National Center for Advancing Translational Sciences (NCATS), 2019) can be followed below.

The chains behind the UniProt entries cited, without tags or fusion partners.
UniProt P07954, whole entry: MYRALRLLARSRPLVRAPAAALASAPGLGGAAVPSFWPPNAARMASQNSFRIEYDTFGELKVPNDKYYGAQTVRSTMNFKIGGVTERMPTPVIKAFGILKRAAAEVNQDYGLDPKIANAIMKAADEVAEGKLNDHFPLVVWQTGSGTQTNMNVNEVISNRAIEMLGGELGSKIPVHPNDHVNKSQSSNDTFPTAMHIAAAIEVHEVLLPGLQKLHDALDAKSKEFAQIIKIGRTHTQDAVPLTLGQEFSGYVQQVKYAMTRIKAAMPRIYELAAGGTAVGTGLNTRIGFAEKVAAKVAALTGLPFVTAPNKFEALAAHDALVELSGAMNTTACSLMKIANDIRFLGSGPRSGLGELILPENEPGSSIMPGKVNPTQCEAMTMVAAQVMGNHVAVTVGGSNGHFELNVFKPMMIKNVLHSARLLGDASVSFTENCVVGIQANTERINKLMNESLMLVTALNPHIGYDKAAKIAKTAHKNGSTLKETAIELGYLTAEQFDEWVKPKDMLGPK

The entries are a selection whose mix differs from that of the whole data set. Some results for these compounds are left out of this collection, so the calls shown say nothing about other tests. Results filed as inconclusive are left out. Active and inactive are the calls of the source. Calls follow the shape of the dose curve; as a rule, active = well fitted inhibition curve with a large enough effect; inconclusive = small, poorly fitted or top-dose-only effect, or effect the other way; inactive = flat fitted curve, though single readings scatter.
% is scaled to controls: 0 for no effect and ±100 for the full control effect.

The assay addresses Fumarate hydratase, mitochondrial (Homo sapiens) (UniProt P07954). Description: Identification of activators of human fumarate hydratase by quantitative high-throughput screening. Also: the screen sought activators but most active calls are inhibition curves; nearly all actives have a fitted effect of over 45% in size. To be noted: FH coupled MDH/diaphorase resazurin fluorescence, 15 min; at 79.9 µM (top of the series). The text has this: Fumarate hydratase (FH) is a metabolic enzyme that is part of the Krebs-cycle, and reversibly catalyzes the hydration of fumarate to malate. Mutations of the FH gene have been associated with fumarate hydratase deficiency (FHD), hereditary leiomyomatosis, renal cell cancer (HLRCC), and other diseases. Currently there are no high-quality small molecule probes for studying human fumarate hydratase. To address this, we developed a quantitative high throughput screening (qHTS) FH assay and screened a total of 57,037 compounds in dose-response. While no inhibitors of FH were confirmed, a series of phenyl-pyrrolo-pyrimidine-diones (12 compounds) were identified as activators of human fumarate hydratase. […] The binding of two compounds from the series to human fumarate hydratase was confirmed by microscale thermophoresis. The low hit rate in this screening campaign confirmed that FH is a "tough target" to modulate, and the small molecule activators of human fumarate hydratase reported here may serve as a starting point for further optimization and development into cellular probes of human FH and potential drug candidates.
For primary high-throughput screen, 3 ul of FH solution (containing 13.33nM human fumarate hydratase, 13.33IU/ml malic dehydrogenase, 0.2mM NAD, 0.067mg/ml diaphorase and 0.067mM resazurin in the assay buffer (50 mM Tris pH 8.0, 5 mM MgCl2, 0.01% Brij 3) was dispensed into each well in a black solid bottom 1536-well assay plate (Greiner Bio-One) using a BioRAPTR FRD dispenser (Beckman Coulter, Brea, CA). A 1536-well pintool dispenser outfitted with 20 nl pins (Wako Automation, San Diego, CA) was used to transfer 20 nL of DMSO-solubilized compound (Cherrypick plates) to each 1536-well assay plate. Each compound was screened at five concentrations: 15 nM, 151 nM, 1.5 uM, 15.4 uM, 76.9 uM. Following compound transfer, plates were incubated in room temperature for 10 minutes. 1 uL of substrate solution containing fumaric acid (160 uM) was dispensed via BioRAPTR FRD to initiate the reaction. Plates were immediately transferred to a ViewLux microplate imager (PerkinElmer, Waltham, MA), and any resulting resorufin fluorescence was measured (exitation/emission, 525/598 nm) at 0 and 15 minutes. The exposure time is 1 second. Fluorescence from each well was normalized using enzyme-free and DMSO-treated control wells on each plate, and changes in fluorescence (delta RFU) were calculated using the difference in fluorescent signal for each well at 15 minutes versus 0 minutes.
(The colour change of resazurin is a common sign of viable cells or microbes.)
In the case of `CN(C)C1(CNC(=O)c2ccccc2F)CCCCC1`, the activity change, negative = inhibition is inactive: -4.16%.

For the molecule `CN(C)C1(CNC(=O)c2cccc(Cl)c2)CCCCC1`, the activity change, negative = inhibition is inactive: 4.18%.

Consider `CCOc1cccc(C(=O)NCC2(N(C)C)CCCCC2)c1`, for which the activity change, negative = inhibition was inactive: -10.5%.

`CCCCOc1ccccc1C(=O)NCC1(N(C)C)CCCCC1`: the activity change, negative = inhibition was inactive: -32.6%.

In the case of `CN(C)C1(CNC(=O)c2ccccc2[N+](=O)[O-])CCCCC1`, the activity change, negative = inhibition is inactive: 1.38%.

Consider `COc1ccc(C(=O)NCC2(N(C)C)CCCCC2)cc1Cl`, for which the activity change, negative = inhibition is inactive: -0.847%.

As for `CC(C)Oc1ccc(C(=O)NCC2(N(C)C)CCCCC2)cc1`, the activity change, negative = inhibition is inactive: 5.92%.

Consider `Cc1cccc(C(=O)NCC2(N(C)C)CCCCC2)c1`, for which the activity change, negative = inhibition was inactive: 7.32%.

For the molecule `COc1cc(C(=O)NCC2(N(C)C)CCCCC2)cc(OC)c1OC`, the activity change, negative = inhibition was inactive: -11.6%.

Take `CC(C)COc1ccc(C(=O)NCC2(N(C)C)CCCCC2)cc1`: the activity change, negative = inhibition was inactive: -7.57%.

As for `COc1cccc(C(=O)NCC2(N3CCOCC3)CCCCC2)c1`, the activity change, negative = inhibition is inactive: -2.84%.
